This assay has as its target Strep-His WDR44 (340–389) (human) (UniProt Q5JSH3). Kind of assay: BLI; His-WDR44 immobilised on anti-penta-His tips, dose response of Rab11 (10–1000 nM), triplicate; KD estimated from the normalised response by one-site binding nonlinear regression; 30 °C; 20 mM Hepes pH 7.5, 150 mM NaCl, 1 mM MgCl2, bovine serum albumin, 0.002% Tween-20.

Amino acid sequences for entries named in this document (tags omitted). A change or cut given only in a name is not applied to a line headed by its entry. Residues count along the entry.
UniProt Q5JSH3, 340-389: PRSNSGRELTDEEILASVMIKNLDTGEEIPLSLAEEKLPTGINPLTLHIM
UniProt P62491: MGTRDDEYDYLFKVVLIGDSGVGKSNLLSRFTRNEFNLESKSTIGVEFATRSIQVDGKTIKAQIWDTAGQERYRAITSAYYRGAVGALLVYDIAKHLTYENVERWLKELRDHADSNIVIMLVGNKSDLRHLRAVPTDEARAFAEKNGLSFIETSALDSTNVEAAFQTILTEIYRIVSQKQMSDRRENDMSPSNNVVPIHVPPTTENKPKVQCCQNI

With “Rab11a (GTPγS-loaded) (from UniProt P62491 1-216) (natural protein)”, the Kd is 75 nM.
